# Laboratory results from PubChem BioAssay AID504810 (National Center for Advancing Translational Sciences (NCATS), 2011).
# Chains of the proteins cited; added tags and fusions are not shown.
# UniProt P16473, whole entry, looked up: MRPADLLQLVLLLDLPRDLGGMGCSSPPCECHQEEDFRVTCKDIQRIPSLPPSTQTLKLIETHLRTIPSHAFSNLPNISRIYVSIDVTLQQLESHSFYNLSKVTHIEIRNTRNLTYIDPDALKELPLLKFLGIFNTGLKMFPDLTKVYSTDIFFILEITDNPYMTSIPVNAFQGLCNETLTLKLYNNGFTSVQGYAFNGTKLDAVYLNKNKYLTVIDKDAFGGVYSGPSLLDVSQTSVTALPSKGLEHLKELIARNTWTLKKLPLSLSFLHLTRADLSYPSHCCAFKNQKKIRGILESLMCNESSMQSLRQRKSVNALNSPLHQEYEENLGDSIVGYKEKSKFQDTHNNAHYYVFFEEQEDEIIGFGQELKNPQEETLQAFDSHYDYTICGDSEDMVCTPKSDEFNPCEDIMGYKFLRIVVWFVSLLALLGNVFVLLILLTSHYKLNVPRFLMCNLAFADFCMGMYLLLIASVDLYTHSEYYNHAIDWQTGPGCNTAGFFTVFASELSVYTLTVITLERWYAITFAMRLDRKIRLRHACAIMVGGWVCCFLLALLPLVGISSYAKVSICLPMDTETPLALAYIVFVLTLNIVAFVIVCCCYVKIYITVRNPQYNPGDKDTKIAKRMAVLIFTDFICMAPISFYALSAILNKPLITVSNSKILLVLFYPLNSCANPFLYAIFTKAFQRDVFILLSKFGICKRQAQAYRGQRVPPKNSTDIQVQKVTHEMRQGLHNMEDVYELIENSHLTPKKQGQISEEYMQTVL
# Several values for one entry are separate records, joined by “and”; a condition that tells them apart may be missing. Equal entries are not always repeated. The list shows a part of the results, in another mix than the full data. Activity calls are given as the source filed them.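 Rule for the calls: active = activity change below a set negative limit, meaning inhibition stronger than a set level (cut at about -70% in these data); inconclusive = activity change between two set negative limits; inactive = the rest.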
# Biological target: Thyrotropin receptor (Homo sapiens) (UniProt P16473)
# Experiment: Antagonists of the Thyroid Stimulating Hormone Receptor: HTS campaign
# Conditions: TSHR-expressing cells, TSH-stimulated cAMP HTRF, 2 h; at 11.5 µM; hits give low values
# Excerpt: The thyroid-stimulating hormone receptor (TSHR) is a member of the 7 trans-membrane-spanning receptor (7TMR) family of cell surface receptors. TSHR-mediated hyperthyroidism is important in thyroid pathology. The development of small molecule antagonists of TSHR may lead to therapeutic approaches for TSHR-mediated hyperthyroidism caused by constitutively activating mutations or stimulating auto-antibodies associated with Graves' disease. Graves' disease is the leading cause of hyperthyroidism and is caused by autoantibodies that stimulate TSHR (TsAbs) causing thyroid growth and unregulated overproduction of thyroid hormones and existing treatments have liabilities (agranulocytosis). In addition, TSHRs are known to be expressed in multiple extrathyroidal tissues including bone, brain, kidney, testis, fat and cells of the immune system but the role of the TSHR in these tissues is not clear. Therefore, TSHR antagonists/inverse agonists could be used as probes of extrathyroidal TSHR function. Finally, TSHR inverse agonists, which are a subclass of antagonists that inhibit agonist-independent (or basal or constitutive) TSHR signaling, could be used to inhibit TSH-independent signaling in patients with recurrent or metastatic thyroid cancer who are receiving thyroid hormone to suppress TSH. In collaboration between scientist from the NCGC and the NIDDK, a miniaturized HTRF high-throughput screen was developed. It's a cell based assay, where an anti cAMP antibody contains a fluorescent cryptate tag (excitation 337 nm; emission 620 nm) and the acceptor is cAMP-d2 (excitation 620 nm; emission 665 nm). When antibody and cAMP-d2 interact and are excited by a 337 nm light, a FRET occurs resulting in emission at 665 nm. The assay is competition between cAMP-d2 and cAMP (from the cell lysate). The homogeneous protocol allows for one step dispense after stimulation that is automation friendly. NIH Chemical Genomics Center [NCGC] NIH Molecular Libraries Probe Centers Network [MLPCN] MLPCN Grant: MH090855-01 Assay Submitter (PI): Marvin Gerhengorn
# 1. 3ul of 200 TSHR freshly harvested cells/well are dispensed into a 1536 TC-treated white solid bottom plate. 2. Through pintool addition, 23nl of compounds and control in 100% DMSO are added to the plate. 3. Then 1ul of EC80 TSH (4nM final) is added to the plate. 4. Assay is incubated at 37 deg C for 2 hours. 5. 2ul of cAMP antibody diluted 1:20 in lysis buffer is added. 6. Immediately following, 2ul of d2 diluted 1:20 in HBSS is added seperately. 7. The assay is incubated for 30 minutes at ambient room temperature. 8. The result is obtained by using a ViewLux read-out with HTRF settings.
# % is set by controls: 0 for no effect and ±100 for the full control effect.
row,SMILES,"activity change, negative = inhibition"
1,COc1ccccc1CNC(=O)COC(=O)C(O)(c1ccccc1)c1ccccc1,inactive: 6.77%
2,CC(C)/C=N\N=C(\N)N[N+](=O)[O-],inactive: 8.35%
3,O=[As](O)(c1ccccc1Br)c1ccccc1Br,inactive: -8.72%
4,CCOP(=O)(NC(=NC(C)c1ccccc1)NC(C)c1ccccc1)OCC (stereo unspecified),inactive: 2.14%
5,CCC1=CC2Cc3nc4ccc(Cl)cc4c(N)c3C(C1)C2 (stereo unspecified),inactive: -9.62%
6,O=P1(Nc2ccccn2)COc2ccccc2OC1,inactive: -5.96%
7,CCOP(=O)(Nc1ccc(C)cn1)OCC,inactive: 21.4%
8,CN(CCCl)Cc1cc(Cl)c(NC2=NCCN2)c(Cl)c1,inactive: -4.46%
9,CC(C)(C)C(=O)NC(Sc1ncccn1)C(Cl)(Cl)Cl (stereo unspecified),inactive: -8.34%
10,Clc1n[nH]nc1-c1nn[nH][15n]1,inactive: 0.557%
11,O=P1(Nc2ncccn2)COc2ccccc2OC1,inactive: 36.6%
12,Nc1cccc([As](=O)(O)c2ccccc2)c1,inactive: -5.61%
13,O=[As](O)(c1cccs1)c1cccs1,inactive: 9.67%
14,Cc1ccc(OCC(=O)OC2CN3CCC2CC3)cc1 (stereo unspecified),inactive: 6.26%
15,NS(=O)(=O)c1cccc(NC(=O)COC(=O)C(O)(c2ccccc2)c2ccccc2)c1,inactive: 3.59%
16,O=P1(Nc2ccc(Br)cn2)COc2ccccc2OC1,inactive: 14.6%
17,Cc1ccc(C(=O)OC2CN3CCC2CC3)cc1 (stereo unspecified),inactive: -1.66%
18,CC1CCC(C(C)C)C(OP(=O)(Nc2ccccn2)c2ccccc2)C1 (stereo unspecified),inactive: 7.38%
19,Cc1nn(-c2ccccc2)c2c1P(=O)(N1CCOCC1)N(C)C(c1ccccc1)=N2 (stereo unspecified),inactive: 12.2%
20,CN(C)C1(CNC(=O)c2ccc(S(C)(=O)=O)cc2)CCCCC1,inactive: 6.3%
21,O=C(/C=C/c1ccccc1)OC1CN2CCC1CC2 (stereo unspecified),inactive: 12.5%

row,SMILES,"activity change, negative = inhibition"
1,CN(C(=O)Cc1ccccc1)[C@@H]1CC[C@]2(CCCO2)C[C@H]1N1CCCC1,inactive: 14.9% and inactive: -13%
2,CCOP1(=S)c2c(C)nn(CCC#N)c2N=C(c2ccc(F)cc2)N1C (stereo unspecified),inactive: -1.78%
3,N#CCCN(C(=O)COC(=O)C(O)(c1ccccc1)c1ccccc1)c1ccc(F)cc1,inactive: 4.04%
4,O=[N+]([O-])c1ccc2c(c1)nnn2O,inactive: 9.39%
5,O=P(Nc1nccs1)(Oc1ccccc1)Oc1ccccc1,inactive: 12.1%
6,O=P(Nc1nccs1)(c1ccccc1)c1nc2ccccc2s1 (stereo unspecified),inactive: -9.62%
7,CCOP1(=S)c2c(C)nn(CCC#N)c2N=C(c2ccccc2F)N1C (stereo unspecified),inactive: 2.8%
8,CS(=O)(=O)c1cc([N+](=O)[O-])c2no[n+]([O-])c2c1,inactive: 0.074%
9,O=C(O)COc1ccc([As](=O)(O)O)cc1[N+](=O)[O-],inactive: 34.6%
10,Nc1ccccc1[As](=O)(O)c1ccccc1,inactive: 1.86%
11,Nc1cccc2c([As](=O)(O)O)cccc12,inactive: 10.1%
12,Cc1ccc(NCCc2c([N+](=O)[O-])cc([N+](=O)[O-])cc2[N+](=O)[O-])cc1,inactive: -8.73%
13,CCCOP(=S)(Nc1nc(N)cc(=O)[nH]1)OCCC,inactive: 27.6%
14,CCOP(=O)(Nc1cccc2ccccc12)OCC,inactive: -2.97%
15,COc1cc(C2NCCC3(OCCO3)C2(C)C)cc(OC)c1OC (stereo unspecified),inactive: 9.09%
16,O=C(OC1CN2CCC1CC2)c1ccc(Cl)cc1 (stereo unspecified),inactive: -0.513%
17,CS(=O)(=O)c1ccc(Cl)c(NC(=O)COC(=O)C(O)(c2ccccc2)c2ccccc2)c1,inactive: -2.28%
18,O=[As](O)(O)c1cccnc1,inactive: 1.38%
19,COc1cc(C(=O)NCC2(N3CCOCC3)CCCCC2)cc(Cl)c1OC(C)C,inactive: 11%
20,O=[As](O)(c1cccc(O)c1)c1cccc(O)c1,inactive: 10.7%
